Data taken from ChEMBL document CHEMBL1134154, “1-Alkyl-3-amino-5-aryl-1H-[1,2,4]triazoles: novel synthesis via cyclization of N-acyl-S-methylisothioureas with alkylhydrazines and their potent corticotropin-releasing factor-1 (CRF(1)) receptor antagonist activities” (Bioorg Med Chem Lett, 2001).

Target: T1, Corticotropin-releasing factor receptor 1 (Homo sapiens, UniProt P34998)
T1 sequence (P34998 whole entry): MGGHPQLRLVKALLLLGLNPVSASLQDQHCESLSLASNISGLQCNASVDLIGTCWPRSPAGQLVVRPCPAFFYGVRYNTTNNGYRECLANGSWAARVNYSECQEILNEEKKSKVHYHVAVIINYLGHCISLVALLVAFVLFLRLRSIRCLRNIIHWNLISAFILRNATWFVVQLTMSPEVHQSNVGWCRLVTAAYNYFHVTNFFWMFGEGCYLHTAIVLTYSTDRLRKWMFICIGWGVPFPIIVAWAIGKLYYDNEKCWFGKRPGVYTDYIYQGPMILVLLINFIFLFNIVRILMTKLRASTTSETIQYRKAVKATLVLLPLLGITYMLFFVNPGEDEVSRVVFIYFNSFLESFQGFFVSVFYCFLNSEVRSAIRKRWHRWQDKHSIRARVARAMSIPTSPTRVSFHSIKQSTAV
Assay: Inhibition of [125I]o-CRF binding to human Corticotropin releasing factor receptor 1 expressed in CHO cells.
Format: cell-based

Row | Structure (SMILES) | Ki [nM]
1 | CCCN(c1nc(-c2c(C)cc(C)cc2C)n(CC(F)(F)F)n1)C(C1CC1)C1CC1 | 1500
2 | CCCN(c1n[nH]c(-c2c(C)cc(C)cc2C)n1)C(C1CC1)C1CC1 | 3200
3 | CCCN(c1nc(-c2ccc(C)cc2C)n(C)n1)C(C1CC1)C1CC1 | 72
